{"sequences": {"note": "The chains behind the UniProt entries cited, without tags or fusion partners.", "UniProt P25025, whole entry": "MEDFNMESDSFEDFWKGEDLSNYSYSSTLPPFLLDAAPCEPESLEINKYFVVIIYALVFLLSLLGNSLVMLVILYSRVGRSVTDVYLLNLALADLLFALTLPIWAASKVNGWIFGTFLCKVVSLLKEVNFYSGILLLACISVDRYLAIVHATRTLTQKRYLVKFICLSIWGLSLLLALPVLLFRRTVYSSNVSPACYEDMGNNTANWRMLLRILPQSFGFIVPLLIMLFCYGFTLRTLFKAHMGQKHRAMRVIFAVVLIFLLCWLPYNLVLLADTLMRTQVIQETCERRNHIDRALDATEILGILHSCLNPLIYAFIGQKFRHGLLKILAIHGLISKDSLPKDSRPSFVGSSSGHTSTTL", "UniProt P25024, whole entry": "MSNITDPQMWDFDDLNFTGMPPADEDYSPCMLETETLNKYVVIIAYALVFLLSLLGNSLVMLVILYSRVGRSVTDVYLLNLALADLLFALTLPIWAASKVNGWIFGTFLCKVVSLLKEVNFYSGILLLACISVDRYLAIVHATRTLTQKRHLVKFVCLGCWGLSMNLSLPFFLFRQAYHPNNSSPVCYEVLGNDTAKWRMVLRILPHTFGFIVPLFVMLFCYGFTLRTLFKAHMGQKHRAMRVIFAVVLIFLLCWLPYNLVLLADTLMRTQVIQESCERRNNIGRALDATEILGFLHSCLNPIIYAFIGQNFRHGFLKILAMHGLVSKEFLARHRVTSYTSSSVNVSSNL"}, "source": "ChEMBL document CHEMBL3425456", "about": "“Boronic acid-containing CXCR1/2 antagonists: Optimization of metabolic stability, in vivo evaluation, and a proposed receptor binding model” (Bioorg Med Chem Lett, 2015)", "key": {"[1]": {"target": "T1, C-X-C chemokine receptor type 2 (Homo sapiens, UniProt P25025)", "assay": "Inhibition of CXCR2 (unknown origin) transfected with RBL cells", "assay_type": "cell-based", "outline": "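RBL cells stably transfected with CXCR2 were used to measure antagonist activity at the receptor.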"}, "[2]": {"target": "C-X-C chemokine receptor type 1 (Homo sapiens, UniProt P25024)", "assay": "Inhibition of CXCR1 (unknown origin) transfected with RBL cells", "assay_type": "cell-based"}, "[3]": {"target": "Interleukin-8 receptors, CXCR1/CXCR2 (Homo sapiens, UniProt P25025+P25024)", "assay": "Antagonist activity at CXCR1/CXCR2 in human PMN cells assessed as inhibition of GROalpha-mediated intracellular calcium release", "assay_type": "functional, cell-based"}, "[4]": {"target": "T1, C-X-C chemokine receptor type 2", "assay": "Inhibition of CXCR2 (unknown origin) expressed in PathHunter celline by beta-arrestin assay", "outline": "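Antagonist-mode PathHunter β-arrestin recruitment assay in CXCR2-expressing cells. SB225002 served as the reference antagonist. Read-out is an IC50.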"}}}
{"smiles": "O=C(Nc1ccc(F)cc1)c1ccc(SCc2cc(OC(F)(F)F)ccc2B(O)O)nc1", "values": [{"measurement": "IC50", "setting": "[1]", "result": 21, "unit": "nM"}, {"measurement": "IC50", "setting": "[2]", "result": 31, "unit": "nM"}, {"measurement": "IC50", "setting": "[3]", "result": 22, "unit": "nM"}, {"measurement": "IC50", "setting": "[4]", "result": 130, "unit": "nM"}]}
